Source: article PMC4945863, “Dual thio-digalactoside-binding modes of human galectins as the structural basis for the design of potent and selective inhibitors” (Scientific Reports, 2016)

Sequences of proteins named here, by UniProt entry; tags and fusion partners are left off.
UniProt P09382, whole entry: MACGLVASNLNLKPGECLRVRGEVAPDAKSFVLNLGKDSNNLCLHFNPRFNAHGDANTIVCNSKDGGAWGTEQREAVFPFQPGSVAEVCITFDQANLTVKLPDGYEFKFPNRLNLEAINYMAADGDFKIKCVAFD
UniProt P47929, whole entry: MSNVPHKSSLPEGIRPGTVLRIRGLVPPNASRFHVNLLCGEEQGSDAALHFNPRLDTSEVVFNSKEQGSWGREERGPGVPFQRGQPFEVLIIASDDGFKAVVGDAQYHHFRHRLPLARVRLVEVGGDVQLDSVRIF

How the values were obtained:
[1] = target: T1, galectin-1 (Homo sapiens, UniProt P09382); assay: Isothermal titration calorimetry (ITC), galectin-1; format: binding; conditions: 298 K
T1 construct: full-length galectins-1 (residues 1-135); 6xHis; made in house; host or cells: Escherichia coli BL21 (DE3)
Protocol: (§1) Human galectins-1, -3CRD and -7 were produced in E. coli according to previous studies.
(§2) Samples for use in ITC were diluted to appropriate concentrations in dialysate buffer (25 mM Tris-HCl pH 8.0, 300 mM NaCl and 5 mM β-mercaptoethanol) saved from the ultrafiltration step. All samples were filtered with 0.22 μm cutoff filters (Millipore) and extensively degassed with stirring prior to use. […] To avoid heating effects due to differing concentration of DMSO in the injectant and protein solutions, 5% DMSO was added to the protein. Software provided by Microcal was used for the curve fitting of the experimental data as well as for calculation of the thermodynamic data. Specifically, all ITC data were corrected for the heat of dilution of the titrant by subtracting the excess heats at high molar ratios of ligands to galectins. Binding stoichiometry, enthalpy and equilibrium association constants were determined by fitting the corrected data to a bimolecular interaction model and summarised in Table 1.
(§3) Isothermal titration calorimetry (ITC). […]
(§4) Specifically, all ITC data were corrected for the heat of dilution of the titrant by subtracting the excess heats at high molar ratios of ligands to galectins. Binding stoichiometry, enthalpy and equilibrium association constants were determined by fitting the corrected data to a bimolecular

[2] = target: T2, galectin-7 (Homo sapiens, UniProt P47929); assay: Isothermal titration calorimetry (ITC), galectin-7; format: binding; conditions: 298 K
T2 construct: (residues 1-136); 6xHis; made in house; host or cells: Escherichia coli BL21 (DE3)
Protocol: as §1, §2, §3, §4

- Kd [1]: 67.3 ± 8.6 µM
- ΔG [1]: -5.7 ± 0.08 kcal/mol
- Kd [2]: 573 ± 57.7 µM
SMILES: OC[C@H]1O[C@@H](S[C@@H]2O[C@H](CO)[C@H](O)[C@H](O)[C@H]2O)[C@H](O)[C@@H](O)[C@H]1O [TDG, thio-digalactoside]
